# Test results as given in US20260382581A1, “COMPOSITIONS COMPRISING CYTISINE IN THE TREATMENT AND/OR PREVENTION OF ADDICTION IN SUBJECTS IN NEED THEREOF” (published 2026).
# Tests used:
# [1] = system: adult users of nicotine e-cigarettes; assay: claude: secondary continuous vaping abstinence (Weeks 3-6, 6-9, 3-9, Week 9 to 16)
# From the text: A second measurement consisted of biochemically verified continuous vaping abstinence at any time during treatment, with vaping abstinence at Week 3-6 or Week 6-9 for of cytisinicline treatment vs placebo. 7-day point prevalence rates were compared for vaping abstinence (Week 2 to 12) (FIG. 62). An additional measurement included reduction in daily vaping as measured by cotinine, where cytisinicline treatment vs placebo for a reduction in nicotine vaping using weekly quantitative cotinine levels from Week 2 to Week 12. Safety was assessed by adverse effects and serious adverse effects, considering number, severity, and attribution to study drug. Early beneficial effect was observed and continued throughout the 12 weeks with some weeks at or close to statistical significance (weeks 4, 6, 7, 8, 9, and 12) (FIGS. 63-65). Cotinine values less than 1 were converted to 1 due to extreme asymmetry (FIG. 65)
# Primary Marginal and Secondary Outcomes: the primary outcome analysis (not stratified) and the secondary outcomes are analyzed using Fisher's exact test. A forest graph compares the primary outcome marginal and secondary outcome effects (FIG. 43)
# [2] = ORCA-3 (Example 2): adverse events, serious adverse events, severe TEAEs, withdrawals (pooled blinded); settings: ORCA-3 follow up period
# From the text: This Example describes a Phase 3, multi-center, double-blind, randomized, placebo-controlled trial designed to evaluate the efficacy and safety of cytisine in adult smokers. This study is designed to improve efficacy outcomes and to determine whether continued treatment can prevent early smoking relapse. The study is designed to evaluate treatment across 3 treatment arms: placebo (A), treatment with cytisine (e.g., cytisinicline) for 6 weeks (B), and treatment with cytisine for 12 weeks (C) as shown in the schematic of FIG. 33. Subjects are randomized to one of the three arms A, B, or C. In Arm A, subjects are treated with a placebo for 12 weeks plus behavioral support. In Arm B, subjects are treated with 3.0 mg cytisinicline TID for 6 weeks followed by a placebo for 6 weeks plus behavioral support. In Arm C, subjects are treated with 3.0 mg cytisinicline TID for 12 weeks plus behavioral support. Cytisine treatment will be evaluated in the study population for 6 or 12 weeks, with a primary efficacy endpoint of 4-weeks of continuous abstinence while on treatment and will include a 6-month follow-up period.
# All subjects will be monitored for adverse events starting at screening (pre-existing), by telephone contact on Day 1, at clinic visits on Day 2 and Day 7 during Week 1, then weekly throughout the Treatment Period (Weeks 2 through 12/EOT) and monthly during the Follow-up Period (see Table 15 and Table 16). Laboratory (hematology and chemistry) evaluations will be performed at the Week 1, Week 6, and Week 12 clinic visits using a central laboratory.
# Safety will be assessed by consideration of all adverse events reported by or elicited from the subject and abnormalities detected on hematology and serum chemistry tests. Worsening of other pre-existing medical conditions and any changes to concomitant medications/treatments will also be taken into account in this evaluation.
# Safety assessments will include reported adverse events, laboratory test results, and vital signs. Safety variables will be summarized for the Safety Analysis Set (SAS), defined as all randomized subjects who take at least one dose of study drug.
# Adverse events (AEs) will be coded using the MedDRA dictionary. Coding will include system organ class (SOC) and preferred term (PT). All verbatim descriptions and coded terms will be listed for all AEs.
# [3] = system: adult smokers; assay: ORCA-2: verified 7-day point-prevalence abstinence; settings: both cytisinicline arms, throughout active treatment
# From the text: The study had two primary endpoints. They assessed whether cytisinicline produced greater biochemically-confirmed continuous smoking abstinence when compared to placebo during the last 4 weeks of the 6-week treatment (weeks 3 to 6 for Arms B vs. A) and the 12-week treatment (weeks 9 to 12 for Arms C vs. A). Study success was defined as either primary endpoint meeting statistical criterion. The secondary outcome measures were verified continuous cigarette abstinence to week 24 (weeks 3 to 24 for Arms B vs. A; weeks 9 to 24 for Arms C vs. A). A third secondary outcome measure compared the risk of relapse to smoking between weeks 6 and 24 among participants assigned to cytisinicline who achieved abstinence by week 6; these individuals were either switched to placebo at week 6 (Arm B) or continued cytisinicline to week 12 (Arm C). Other pre-specified endpoints included comparing the difference between arms in verified 7-day point-prevalence abstinence at each visit from week 2 through week 24 and assessing for evidence of effect modification for subsets defined by baseline attributes. To assess cigarette craving between groups, the Brief Questionnaire of Smoking Urges (QSU-brief) was administered at clinic visits on Day 0 and at Weeks 1 to 6 (4, 5). […]
# [4] = Week 9 to Week 16, 12 Weeks arm, N = 107
# [5] = start day 86, resolution day 87
# [6] = start day 87, resolution day 90
# [7] = start day 87, resolution day 96
# [8] = start day 102, resolution day 105
# [9] = start day 104, resolution day 105
# [10] = start day 107, resolution day 111
# [11] = start day 112, resolution day 113
# [12] = start day 115, resolution day 120
# [13] = start day 119, resolution day 139
# [14] = start day 146, no resolution day
# [15] = start day 148, resolution day 152
# [16] = start day 151, resolution day 161
# [17] = start day 161, resolution day 161
structure (smiles),measurement,setting,value
O=c1cccc2n1C[C@@H]1CNC[C@H]2C1,"Vaping cessation from Week 3 to Week 6, %","[1]; 12 weeks, N = 107",24.3%
same,"Vaping cessation from Week 6 to Week 9, %","[1]; 12 weeks, N = 107",30.8%
same,Difference in Proportions (95% CI),"[1]; Week 3 to 6, vs placebo","0.09 (−0.058, 0.209)"
same,Odds Ratio (95% CI),"[1]; Week 3 to 6, vs placebo","1.81 (0.766, 4.551)"
same,Difference in Proportions (95% CI),"[1]; Week 6 to 9, vs placebo","0.14 (−0.019, 0.263)"
same,Odds Ratio (95% CI),"[1]; Week 6 to 9, vs placebo","2.18 (0.967, 5.202)"
same,"Continuous vaping abstinence, percent of subjects",[1]; [4],23.4%
same,"Continuous vaping abstinence, subjects",[1]; [4],25 n
same,"Continuous vaping abstinence, difference in proportions","[1]; Week 9 to Week 16, vs placebo",0.10
same,"Continuous vaping abstinence, odds ratio","[1]; Week 9 to Week 16, vs placebo",2.00
same,Outcome of serious adverse event: Post Surgical Complications,[2]; [5],Fatal
same,Severity/Intensity of serious adverse event: Post Surgical Complications,[2]; [5],Severe
same,Outcome of serious adverse event: Worsening Fatigue,[2]; [6],Recovered/Resolved
same,Severity/Intensity of serious adverse event: Worsening Fatigue,[2]; [6],Moderate
same,Outcome of serious adverse event: Coronary Atherosclerosis,[2]; [7],Recovered/Resolved
same,Severity/Intensity of serious adverse event: Coronary Atherosclerosis,[2]; [7],Severe
same,Outcome of serious adverse event: Acute Cholecystitis,[2]; [8],Recovered/Resolved
same,Severity/Intensity of serious adverse event: Acute Cholecystitis,[2]; [8],Moderate
same,Outcome of serious adverse event: Transient Ischemic Attack,[2]; [9],Recovered/Resolved
same,Severity/Intensity of serious adverse event: Transient Ischemic Attack,[2]; [9],Severe
same,Outcome of serious adverse event: Perforated Bowel,[2]; [10],Recovered/Resolved
same,Severity/Intensity of serious adverse event: Perforated Bowel,[2]; [10],Severe
same,Outcome of serious adverse event: Abscess on Right Groin Area,[2]; [11],Recovered/Resolved
same,Severity/Intensity of serious adverse event: Abscess on Right Groin Area,[2]; [11],Severe
same,Causality of serious adverse event: Sepsis,[2]; [12],Unlikely
same,Outcome of serious adverse event: COPD Exacerbation,[2]; [12],Recovered/Resolved
same,Outcome of serious adverse event: Sepsis,[2]; [12],Recovered/Resolved
same,Severity/Intensity of serious adverse event: COPD Exacerbation,[2]; [12],Severe
same,Severity/Intensity of serious adverse event: Sepsis,[2]; [12],Severe
same,Outcome of serious adverse event: Pneumonia,[2]; [13],Recovered/Resolved
same,Severity/Intensity of serious adverse event: Pneumonia,[2]; [13],Severe
same,Causality of serious adverse event: Acute Kidney Injury Superimposed to Chronic Kidney Disease,[2]; [14],Unlikely
same,Causality of serious adverse event: Ureterolithiasis,[2]; [14],Unlikely
same,Severity/Intensity of serious adverse event: Acute Kidney Injury Superimposed to Chronic Kidney Disease,[2]; [14],Severe
same,Severity/Intensity of serious adverse event: Ureterolithiasis,[2]; [14],Severe
same,Outcome of serious adverse event: Pneumonia,[2]; [15],Recovered/Resolved
same,Severity/Intensity of serious adverse event: Pneumonia,[2]; [15],Severe
same,Causality of serious adverse event: Dyspnea,[2]; [16],Unlikely
same,Outcome of serious adverse event: Dyspnea,[2]; [16],Recovered/Resolved
same,Severity/Intensity of serious adverse event: Dyspnea,[2]; [16],Severe
same,Outcome of serious adverse event: Stab Wound,[2]; [17],Fatal
same,Severity/Intensity of serious adverse event: Stab Wound,[2]; [17],Severe
same,Severity/Intensity of serious adverse event: Dyspnea,"[2]; start day 180, no resolution day",Severe
same,7-day point-prevalence abstinence vs placebo,[3],clinically meaningful higher probabilities of biochemically-confirmed 7-day point-prevalence abstinence than placebo
